The list shows a part of the results, in another mix than the full data. Some salts and complexes are drawn in separate pieces, as the source files them; their charges need not balance. Active and inactive are the calls of the source. No stated cut-off is given here; in the data, active means activity change above about 30% (passing the limit was not always enough); inactive means the rest.

The chains behind the UniProt entries cited, without tags or fusion partners.
UniProt P41235, whole entry: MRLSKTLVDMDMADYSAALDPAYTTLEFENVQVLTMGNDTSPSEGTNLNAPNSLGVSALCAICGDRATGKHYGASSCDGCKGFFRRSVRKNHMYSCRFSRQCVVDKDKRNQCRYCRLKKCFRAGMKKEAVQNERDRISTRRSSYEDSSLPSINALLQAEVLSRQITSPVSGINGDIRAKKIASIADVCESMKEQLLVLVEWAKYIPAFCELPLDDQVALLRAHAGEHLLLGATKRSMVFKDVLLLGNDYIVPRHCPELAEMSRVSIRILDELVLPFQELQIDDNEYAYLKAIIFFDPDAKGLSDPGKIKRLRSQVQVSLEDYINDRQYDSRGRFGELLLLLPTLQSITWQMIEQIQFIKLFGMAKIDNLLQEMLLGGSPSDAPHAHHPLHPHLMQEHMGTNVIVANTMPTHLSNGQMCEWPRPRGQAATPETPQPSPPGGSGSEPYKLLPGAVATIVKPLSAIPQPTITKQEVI

For the assay, the target named is Hepatocyte nuclear factor 4-alpha (Homo sapiens) (UniProt P41235). Briefly: HNF4-alpha DNA association modulation – biochemical, fluorescence polarization, FITC-DNA, primary screen (AID 1224865). Conditions: HNF4a-FITC DNA binding, 1 h, at 10 µM, active compounds read high.
As to `CCCOc1ccc(NP(C)(=O)Oc2ccc(Cl)cc2)cc1` (configuration not stated), the activity change is inactive: 0.88%.
For the compound `O=P1(Nc2ncccn2)COc2ccccc2OC1`, the activity change was inactive: -2.81%.
Then `COc1ccccc1OP(C)(=O)Nc1c(C)cccc1C` (configuration not stated), with inactive: -1.07%; and `CN1CCCCC1COC(=O)C1(O)c2ccccc2CCc2ccccc21` (configuration not stated), with inactive: -2.25%; and `CCCC1OP(=O)(Nc2ccccc2)OCC1CC` (configuration not stated), with inactive: -0.81%.
For the compound `O=C(/C=C/c1ccccc1)OC1CN2CCC1CC2` (configuration not stated), the activity change was inactive: 1.64%.
In the case of `CCOC(=O)C(CC)C1=NC(C)(C)Cc2ccccc21.O=[N+]([O-])c1cc([N+](=O)[O-])c(O)c([N+](=O)[O-])c1` (configuration not stated), the activity change is inactive: 0.7%.
For the compound `O=[N+]([O-])c1cc([N+](=O)[O-])c(Nc2nnnn2CCO)c([N+](=O)[O-])c1`, the activity change is inactive: 3.03%.
Regarding `CN(C)C1(CNC(=O)c2ccc(S(C)(=O)=O)cc2)CCCCC1`, the activity change was inactive: 3.23%.
Then `CC1=C2N=C(C=C3N=C(C(C)=C4[N-][C@@](C)([C@@H]5N=C1[C@](C)(CCC(=O)NC[C@@H](C)OP(=O)([O-])O[C@H]1[C@@H](O)[C@@H](n6cnc7cc(C)c(C)cc76)O[C@@H]1CO)[C@H]5CC(N)=O)[C@@](C)(CC(N)=O)[C@@H]4CCC(N)=O)[C@@](C)(CC(N)=O)[C@@H]3CCC(N)=O)C(C)(C)[C@@H]2CCC(N)=O.[C-]#N.[Co+3]`, with inactive: 3.22%; and `COc1cc(C2NCCC3(OCCO3)C2(C)C)cc(OC)c1OC.O=[N+]([O-])c1cc([N+](=O)[O-])c(O)c([N+](=O)[O-])c1` (configuration not stated), with inactive: -0.12%.
Turning to `CC1CCC(C(C)C)C(OP(=O)(Nc2ccccn2)c2ccccc2)C1` (configuration not stated), the activity change was inactive: -1.5%.
Regarding `Cc1ccc(C(=O)OC2CN3CCC2CC3)cc1` (configuration not stated), the activity change is inactive: 2.12%.
Consider `Cc1nn(-c2ccccc2)c2c1P(=O)(N1CCOCC1)N(C)C(c1ccccc1)=N2` (configuration not stated), for which the activity change is inactive: -3.16%.
`CN(C(=O)Cc1ccc(Cl)c(Cl)c1)[C@H]1CC[C@@]2(CCCO2)C[C@@H]1N1CCCC1`: the activity change is inactive: 0.49%.
Consider `CC1=NCCc2c1[nH]c1ccccc21.O=[N+]([O-])c1cc([N+](=O)[O-])c(O)c([N+](=O)[O-])c1`, for which the activity change is inactive: 6.09%.
Under `CN(C)C(=O)c1cc([N+](=O)[O-])cc2c1-c1c(cc([N+](=O)[O-])cc1[N+](=O)[O-])C2=O` stands inactive: 0.94%; under `O=[N+]([O-])c1ccc2c(c1)nnn2O`, inactive: -1.95%.
Consider `CN(C(=O)Cc1ccccc1)[C@@H]1CC[C@]2(CCCO2)C[C@H]1N1CCCC1`, for which the activity change was inactive: 3.47%.
For the compound `CCOP1(=S)c2c(C)nn(CCC#N)c2N=C(c2ccc(F)cc2)N1C` (configuration not stated), the activity change is inactive: -4.35%.
Under `N#CCCN(C(=O)COC(=O)C(O)(c1ccccc1)c1ccccc1)c1ccc(F)cc1` stands inactive: -1.35%; under `NC(=O)Nc1ccc([As](=O)(O)O)cc1`, inactive: 1.53%.
Then `Nc1ccccc1[As](=O)(O)c1ccccc1`, with inactive: -1.58%.
For `O=C(O)COc1ccc([As](=O)(O)O)cc1[N+](=O)[O-]`, the activity change is inactive: -2.74%.
For the compound `CS(=O)(=O)c1cc([N+](=O)[O-])c2no[n+]([O-])c2c1`, the activity change is inactive: -2.89%.
`O=P(Nc1nccs1)(c1ccccc1)c1nc2ccccc2s1` (configuration not stated): the activity change is inactive: -3.04%.
Consider `O=P(Nc1nccs1)(Oc1ccccc1)Oc1ccccc1`, for which the activity change is inactive: -0.98%.
Consider `CCOP1(=S)c2c(C)nn(CCC#N)c2N=C(c2ccccc2F)N1C` (configuration not stated), for which the activity change is inactive: -0.92%.
Under `O=C(O)c1cccc(Nc2c([N+](=O)[O-])cc([N+](=O)[O-])cc2[N+](=O)[O-])c1` stands inactive: -3.73%; under `CCOP(=O)(Nc1cccc2ccccc12)OCC`, inactive: 1.23%.
Turning to `CCCOP(=S)(Nc1nc(N)cc(=O)[nH]1)OCCC`, the activity change was inactive: -0.04%.
For the compound `Cc1ccc(C)c(NP(C)(=O)Oc2ccccc2)c1` (configuration not stated), the activity change was inactive: 1.13%.
On to `Cc1ccc(NCCc2c([N+](=O)[O-])cc([N+](=O)[O-])cc2[N+](=O)[O-])cc1`, for which the activity change was inactive: 1.19%.
As for `CP(=O)(Nc1cccc(Br)c1)Oc1ccccc1` (configuration not stated), the activity change is inactive: 4.51%.
`Cc1cc(C)cc(OP(C)(=O)Nc2ccccn2)c1` (configuration not stated): the activity change is inactive: -1.35%.
Turning to `CCOC(=O)c1ccc(NP(C)(=O)Oc2cc(C)cc(C)c2)cc1` (configuration not stated), the activity change is inactive: 0.83%.
In the case of `Cc1cc(C)cc(OP(C)(=O)Nc2ccc(C)cc2C)c1` (configuration not stated), the activity change was inactive: 3.76%.
Then `O=[As](O)(c1cccc(O)c1)c1cccc(O)c1`, with inactive: 0.98%; and `Cc1cccc(OCC(=O)OC2CN3CCC2CC3)c1` (configuration not stated), with inactive: 0.59%; and `COc1ccccc1OP(C)(=O)Nc1cccc(Br)c1` (configuration not stated), with inactive: 2.6%.
On to `CS(=O)(=O)c1ccc(Cl)c(NC(=O)COC(=O)C(O)(c2ccccc2)c2ccccc2)c1`, for which the activity change is inactive: -0.57%.
Consider `COc1cc(C(=O)NCC2(N3CCOCC3)CCCCC2)cc(Cl)c1OC(C)C`, for which the activity change was inactive: 2.27%.
Regarding `O=[As](O)(O)c1cccnc1`, the activity change is inactive: 9.11%.
For the compound `O=C(OC1CN2CCC1CC2)c1ccc(Cl)cc1` (configuration not stated), the activity change was inactive: 7.52%.
`CC(=O)Nc1ccc(Oc2c([N+](=O)[O-])cc([N+](=O)[O-])cc2[N+](=O)[O-])cc1`: the activity change was inactive: 0.27%.
`COc1ccc2c(c1O)-c1c(O)c(OC)cc3c1[C@H](C2)[N+](C)(C)CC3.O=[N+]([O-])c1cc([N+](=O)[O-])c([O-])c([N+](=O)[O-])c1[O-]`: the activity change is inactive: -5.48%.
Then `CC(=O)Nc1ccc([As](=O)(O)O)c(O)c1`, with inactive: -0.74%.
Regarding `COC(=O)C1(C)COP(=O)(NCc2ccccc2)OC1` (configuration not stated), the activity change was inactive: -0.28%.
Then `O=C(OC1CN2CCC1CC2)c1ccc([N+](=O)[O-])cc1` (configuration not stated), with inactive: 0.99%; and `N#C/C(=C\c1ccc(N(CCBr)CCBr)cc1)C(N)=O`, with inactive: 14.7%.
For `CC(=O)c1ccc(N2CC2c2ccncc2)cc1` (configuration not stated), the activity change is inactive: 2.14%.
For `C[C@@H]1C=CCP(=O)(Oc2ccccc2)O1` (some centres not stated), the activity change is inactive: 2.96%.
`C[C@H]1OP(=O)(Oc2ccccc2)C[C@@H]2O[C@@H]21` (some centres not stated): the activity change is inactive: 2.05%.
With `Cc1ccccc1CN(C)C(=O)COC(=O)C(O)(c1ccccc1)c1ccccc1`, the activity change was inactive: -2.49%.
Take `O=C(OCCN1CCN(CCOCc2ccccc2)CC1)C(O)(c1ccccc1)c1ccccc1`: the activity change is inactive: 2.41%.
Under `CP(=O)(Nc1ccccc1F)Oc1ccccc1` (configuration not stated) stands inactive: -4.1%; under `CCc1cc(O)c([N+](=O)[O-])c(C)c1[N+](=O)[O-]`, inactive: 2.87%; under `CC(C)c1ccc(OP(C)(=O)Nc2ccc(SC(F)(F)F)cc2)cc1` (configuration not stated), inactive: -0.64%.
For the compound `CC(C)(C)C(=O)NC(Sc1ccccc1)C(Cl)(Cl)Cl` (configuration not stated), the activity change was inactive: -0.65%.
Under `CCOc1ccc(C2=NCC(CBr)S2)cc1` (configuration not stated) stands inactive: -0.66%.
In the case of `O=P1(Nc2nc3ccc(Cl)cc3s2)COc2ccccc2O1` (configuration not stated), the activity change was inactive: 4.59%.
For `O=[N+]([O-])c1cc([N+](=O)[O-])c(Nc2ccc(Cl)cc2)c([N+](=O)[O-])c1`, the activity change was inactive: 1.58%.
Under `CP(=O)(Nc1ccccc1)Oc1ccc(F)cc1` (configuration not stated) stands inactive: -1.44%; under `CN(C)C(=O)Oc1noc2ccccc12`, inactive: -0.35%; under `O=[N+]([O-])c1cc([N+](=O)[O-])c(OC2CCCCC2O)c([N+](=O)[O-])c1` (configuration not stated), inactive: 0.57%.
As for `CCCCCOc1ccc(NP(C)(=O)Oc2ccc(Cl)cc2Cl)cc1` (configuration not stated), the activity change is inactive: 4.34%.
Take `O=c1c2cc([N+](=O)[O-])ccc2[nH]c2c([N+](=O)[O-])cc([N+](=O)[O-])cc12`: the activity change is inactive: 7.06%.
As to `Cc1ccccc1OP(=O)(Nc1ccccn1)Oc1ccccc1C`, the activity change was inactive: -2.28%.
With `CC(NC(=O)COC(=O)C(O)(c1ccccc1)c1ccccc1)c1ccccc1` (configuration not stated), the activity change was inactive: -3.57%.
Under `CC(=O)NC(SC(=S)N(CC(C)C)CC(C)C)C(Cl)(Cl)Cl` (configuration not stated) stands inactive: -0.15%; under `Cc1ccc(OP(=O)(Nc2ccccn2)Oc2ccc(C)cc2)cc1`, inactive: 1.41%.
Turning to `Cc1c([N+](=O)[O-])cc([N+](=O)[O-])c(Br)c1[N+](=O)[O-]`, the activity change is inactive: -2.96%.
For the compound `COC(=O)c1cc2c(s1)N=C(c1ccccc1)N(C)P2(=O)N1CCOCC1` (configuration not stated), the activity change is inactive: 0.3%.
Then `CCN(CC)CCCOC(=O)C(O)(c1ccccc1)C1CCCCC1` (configuration not stated), with inactive: 1.72%; and `CCC(=O)N1C2C3N(C(=O)CC)C1C1N(C(=O)CC)C(C(N1C(=O)CC)N3C(=O)CC)N2C(=O)CC`, with inactive: 2.77%; and `O=C(OC1CN2CCC1CC2)c1ccccc1` (configuration not stated), with inactive: 5.17%.
Take `CCOC(=O)c1ccc(NP(C)(=O)Oc2ccc(F)cc2)cc1` (configuration not stated): the activity change was inactive: -0.54%.
As to `O=P1(N(CCCl)CCCl)OCCC2CCCCN21` (configuration not stated), the activity change was inactive: 5.92%.
Regarding `COc1ccc(OP(C)(=O)Nc2ccc(SC(F)(F)F)cc2)cc1` (configuration not stated), the activity change was inactive: 0.5%.
As for `CCNC(=S)/N=C(\N)N[N+](=O)[O-]`, the activity change is inactive: -0.95%.
On to `O=C(NC1CCS(=O)(=O)C1)NP(=S)(Oc1ccccc1)Oc1ccccc1` (configuration not stated), for which the activity change is inactive: 1.8%.
Take `Cc1ccc(NP(=O)(Oc2cccc(C)c2)Oc2cccc(C)c2)nc1`: the activity change was inactive: 6.59%.
Regarding `CCN(CC)CCCNc1ccccc1[N+](=O)[O-].O=[N+]([O-])c1cc([N+](=O)[O-])c(O)c([N+](=O)[O-])c1`, the activity change was inactive: -0.03%.
Take `c1ccc(-c2nn[nH]n2)c(-c2nn[nH]n2)c1`: the activity change was inactive: 0.65%.
Consider `Nc1ccc([As](=O)(O)c2ccc([N+](=O)[O-])cc2)cc1`, for which the activity change is inactive: -1.16%.
Then `C(Cc1nn[nH]n1)Cc1nn[nH]n1`, with inactive: -0.59%; and `Cc1c(C(c2ccc3c(c2)OCO3)c2c(C)n(C)n(-c3ccccc3)c2=O)c(=O)n(-c2ccccc2)n1C.O=[N+]([O-])c1cc([N+](=O)[O-])c(O)c([N+](=O)[O-])c1`, with inactive: 4.68%.
